Test: CNS penetration across the blood brain barrier
Assay type: in vivo, mice
Description: Mice are dosed with compounds. Brain to blood ratios are determined by HPLC and LC/MS/MS analysis following oral administration of the test compounds in mice.

In the case of Ibogaine, the “Crossing of the BBB / concentration in brain” value is reported as “cross the BBB and reach micromolar concentrations in brain”.

Reference: patent US9045481B2 (priority 2012, dated 2015)
